Experimental data: patent EP0217577B1, “Antibody complexes of hapten-modified diagnostic or therapeutic agents” (HYBRITECH INCORPORATED, priority 1985, dated 1987)

Substance: Baby Blue acetamidobenzyl EDTA [BBA]
- excretory route, share via liver (in the presence of CHA255 (20 µg and 200 µg)): about 50%
- tissue penetration (without antibody (Table II)): negligible
